{
  "source": "patent US8119672B2",
  "about": "“Compounds, compositions and methods for treating or preventing pneumovirus infection and associated diseases” (Microdose Therapeutx, Inc., priority 2002, dated 2012)",
  "assay": "Solubility in ethanol/propylene glycol/water (85:10:5)",
  "format": "physicochemical",
  "conditions": "R1 in meta position (compound of the invention); ethanol/propylene glycol/water (85:10:5) by volume",
  "procedure": "The solubilities are measured in ethanol/propylene glycol/water (85:10:5) (proportions are by volume).",
  "data": [
    {"substance": "2,2′-[[(3-Methoxyethyl)phenyl]methylene]bis[4-[[(5-methyl-1H-tetrazol-1-yl)imino]methyl]]phenol [Example 16]", "values": [
      {"measurement": "Meta Position Solubiity", "value": 1.14, "unit": "mg/mL"}
    ]}
  ]
}
